Each structure is given as a SMILES string.

The source of these data is ChEMBL document CHEMBL1781933, “Neurosteroid analogues. 16. A new explanation for the lack of anesthetic effects of δ(16)-alphaxalone and identification of a δ(17(20)) analogue with potent anesthetic activity” (J Med Chem, 2011).

Holding throughout (type): cell-based
The subject of assay [1] is Oocyte. Kind of assay: Activity at rat GABA-A receptor alpha1beta2gamma2L expressed in Xenopus oocytes assessed as potentiation of GABA-induced chloride current at 1 uM by electrophysiological Method relative to control. The procedure, abridged:
(§1)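 Oocytes expressing rat α1β2γ2L GABA-A receptors were recorded whole-cell. Compound at 0.1, 1 or 10 µM was co-applied with 2 µM GABA. Response is the current ratio with/without compound. At least four different oocytes per concentration; mean ± SEM.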

The subject of assay [2] is Oocyte. Kind of assay: Activity at rat GABA-A receptor alpha1beta2gamma2L expressed in Xenopus oocytes assessed as increase in chloride current at 10 uM by electrophysiological Method relative to GABA. Summed up:
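Direct gating measured without GABA. Current evoked by 10 µM steroid applied alone to oocytes expressing rat α1β2γ2L GABA-A receptors, expressed as a ratio to the current evoked by 2 µM GABA. Whole-cell recording. At least four oocytes per compound; mean ± SEM.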

For assay [3], the system named is Oocyte. Put plainly: Activity at rat GABA-A receptor alpha1beta2gamma2L expressed in Xenopus oocytes assessed as potentiation of GABA-induced chloride current at 10 uM by electrophysiological Method relative to control. Summed up:
as §1

Assay [4] relates to Oocyte. Kind of assay: Activity at rat GABA-A receptor alpha1beta2gamma2L expressed in Xenopus oocytes assessed as potentiation of GABA-induced chloride current at 0.1 uM by electrophysiological Method relative to control. The procedure, abridged:
as §1

Take `C[C@]12CC[C@@H](O)C[C@@H]1CC[C@@H]1[C@@H]2C(=O)C[C@]2(C)/C(=C\C#N)CC[C@@H]12`: the fold change (FC) stood at 5.06 in the assay with Oocyte [1], 0.17 in the assay with Oocyte [2], 21.5 with Oocyte [3] and 1.17 with Oocyte [4].
With `C[C@]12CC[C@@H](O)C[C@@H]1CC[C@@H]1[C@@H]2C(=O)C[C@]2(C)/C(=C/C#N)CC[C@@H]12`, the fold change (FC) in the assay on Oocyte [1] was determined as 0.77; with Oocyte [2] it was 0.02; in the assay with Oocyte [3] it was 1.82; in the assay on Oocyte [4] it was 0.79.
